The nature of the experiment: Agonist activity at IP receptor in human primary platelets assessed as inhibition of ADP-induced platelet aggregation.

A word on the IC50: it is the concentration that inhibits the measured activity by half. Turning to `O=C(O)COC[C@H]1CC[C@@H](COC(=O)N(c2ccccc2)c2cccc(Cl)c2)CC1`, the IC50 came to 54 nM.

For the origin of these results see BindingDB's records for doi:10.1021/acs.jmedchem.6b00871 (Arena Pharmaceuticals, 2017).
